Reference: ChEMBL document CHEMBL1156873, “Pyrazolopyrimidines as highly potent and selective, ATP-competitive inhibitors of the mammalian target of rapamycin (mTOR): optimization of the 1-substituent” (Bioorg Med Chem Lett, 2010)

Experiment: Selectivity ratio of IC50 for PI3Kalpha to IC50 for mTOR

SMILES	Ratio IC50
CNC(=O)Nc1ccc(-c2nc(N3CC4CCC(C3)O4)c3cnn(C4CCC(OC)(OC)CC4)c3n2)cc1	875
CNC(=O)Nc1ccc(-c2nc(N3CC4CCC(C3)O4)c3cnn([C@H]4CC[C@@H](OC)CC4)c3n2)cc1	2140
CCNC(=O)Nc1ccc(-c2nc(N3CC4CCC(C3)O4)c3cnn(C4CCC5(CC4)OCCO5)c3n2)cc1	17600
CNC(=O)Nc1ccc(-c2nc(N3CC4CCC(C3)O4)c3cnn(C4CCN(C(=O)OC(C)C)CC4)c3n2)cc1	10600
O=C(Nc1ccncc1)Nc1ccc(-c2nc(N3CC4CCC(C3)O4)c3cnn(C4CCC5(CC4)OCCO5)c3n2)cc1	1830
O=C(Nc1ccccc1)Nc1ccc(-c2nc(N3CC4CCC(C3)O4)c3cnn(C4CCC5(CC4)OCCO5)c3n2)cc1	2210
O=C(Nc1ccc(-c2nc(N3CC4CCC(C3)O4)c3cnn(C4CCC5(CC4)OCCO5)c3n2)cc1)Nc1cccnc1	2250
CNC(=O)Nc1ccc(-c2nc(N3CC4CCC(C3)O4)c3cnn(C)c3n2)cc1	184
O=C(NCCF)Nc1ccc(-c2nc(N3CC4CCC(C3)O4)c3cnn(C4CCC5(CC4)OCCO5)c3n2)cc1	23300
CCn1ncc2c(N3CC4CCC(C3)O4)nc(-c3ccc(NC(=O)NC)cc3)nc21	364
CNC(=O)Nc1ccc(-c2nc(N3CC4CCC(C3)O4)c3cnn(C4CCC5(CC4)OCCCO5)c3n2)cc1	305
O=C(Nc1ccc(-c2nc(N3CC4CCC(C3)O4)c3cnn(C4CCC5(CC4)OCCO5)c3n2)cc1)NC1CC1	54500
CNC(=O)Nc1ccc(-c2nc(N3CC4CCC(C3)O4)c3cnn(C(C)C)c3n2)cc1	1950
CNC(=O)Nc1ccc(-c2nc(N3CC4CCC(C3)O4)c3cnn(CCO)c3n2)cc1	132
CNC(=O)Nc1ccc(-c2nc(N3CC4CCC(C3)O4)c3cnn(CCN(C)C)c3n2)cc1	66
CNC(=O)Nc1ccc(-c2nc(N3CC4CCC(C3)O4)c3cnn([C@H]4CC[C@H](OC)CC4)c3n2)cc1	3080
